From patent US20140248641A1, “CLONED GLUCAGON-LIKE PEPTIDE-2 RECEPTORS” (NPS PHARMACEUTICALS, INC., priority 1997, published 2014)

Sequences of proteins named here, by UniProt entry; tags and fusion partners are left off. Residues count along the entry.
UniProt P43220, 24-463, species assumed: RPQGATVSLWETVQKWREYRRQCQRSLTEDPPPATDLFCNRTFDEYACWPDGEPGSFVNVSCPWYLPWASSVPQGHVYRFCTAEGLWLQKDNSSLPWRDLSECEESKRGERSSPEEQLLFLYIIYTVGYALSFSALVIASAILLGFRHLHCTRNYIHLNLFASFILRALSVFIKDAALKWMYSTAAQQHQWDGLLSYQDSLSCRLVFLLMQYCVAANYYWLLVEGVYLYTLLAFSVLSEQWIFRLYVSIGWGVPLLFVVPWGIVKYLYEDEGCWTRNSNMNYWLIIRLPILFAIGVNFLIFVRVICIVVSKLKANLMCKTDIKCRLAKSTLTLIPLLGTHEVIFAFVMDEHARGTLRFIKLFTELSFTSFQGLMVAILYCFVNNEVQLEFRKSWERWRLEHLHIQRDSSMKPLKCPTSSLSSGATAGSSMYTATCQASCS

Target: GLP-1 receptor (Homo sapiens, UniProt P43220)
Experiment: similar functional assay with the GLP-1 receptor
Type: cell-based
Description: The functional assay was performed as follows: cAMP content for each extract was determined in duplicate by EIA (Enzyme ImmunoAssay) using the Amersham Biotrak cAMP EIA Kit (Amersham 225).

Substance: GLP-1 (7-36) amide
- specificity at the GLP-1 receptor (functional assay): expected specificity for GLP-1 was observed
